Results on one molecule are retold here after publication PMC4470865 (Current biology : CB, 2015).

The Kd is the equilibrium constant for the complex coming apart. High values mean a looser complex, low ones a tighter complex.

For assay [1], the target named is T1, actin filaments (Alexa488 label on 3-20% of the actin in the microscopy assays). The experiment in a line: TIRF microscopy of single filaments.
Assay [2] addresses T1, actin filaments. The experiment in a line: TIRF microscopy of single filaments. This is another data set of the same source.

B1: Cy5-Tm1A (AS-Tm1A C32A/S82C labeled with Cy5-maleimide; non-muscle Drosophila tropomyosin isoform Tm1A) (natural protein)
chain: MASMTTSIPQGTLLDVLKKKMRQTKEEMEKYKDEAEEFHKRLQLEVVRREEAESEVAALNRRIQLLEEDLERSEERLGSATAKLCEASQAADESERIRKALENRTNMEDDKVALLENQLAQAKLIAEEADKKYEEVARKLVLMEQDLERSEEKVELSESKIVELEEELRVVGNNLKSLEVSEEKATQKEETFETQIKVLDHSLKEAEARAEFAERSVQKLQKEVDRLEDDLLNVRGKNKLLQEEMEATLHDIQNM
modifications: Cy5-maleimide label
In the assay with actin filaments [1], B1 registered a Kd of 22 nM. Moreover, the “t1/2 of the initial interaction” value with actin filaments [2] is 12.1 min.
